Assay results as given in patent US20040176294A1, “Use of thyroid-stimulating hormone to induce lipolysis” (priority 2003, published 2004).

Legend:
male ob/ob mice = assay: Chronic treatment of ob/ob mice: body weight and food intake; format: in vivo; conditions: daily IP treatment
Protocol: 11-week old male ob/ob mice were individually caged and given a standard lab chow (4% fat) with free access to food and water. Animals were assigned to a treatment group (n=7-8, average weight 54.3+/−0.3 g per group), kept on a 12 hour dark cycle (6 PM to 6 AM), and injected each day between 7 and 9 AM. Chow consumed by each animal was weighed twice weekly. All animals received treatments IP with an injection volume of 0.1 ml. TSH was administered at 267 μg/kg, and the H3-AR agonist CL 316,243 at 0.75 mg/kg. Thyroid hormone (T4) was administered at 1.5 μg/mouse for 4 days, reduced to 1 [μg/mouse for 10 days, and returned to 1.5 μg/mouse for the next 14 days. The vehicle controls received sterile saline. TSH was obtained from Genzyme Pharmaceuticals, (Thyrogen®, catalog number 36778; Genzyme Corporation, Cambridge, Mass.), CL316,243 from Sigma Biochemicals, and T4 obtained from Calbiochem, Inc. All blood draws were performed by retro-orbital puncture under isoflurane anesthesia.
Body weight changes were assessed as the percentage increase in body weight from the beginning of the study. The weight in the vehicle group increased 8.8+/−0.6%.

3T3 L1 adipocytes = assay: Lipolysis (glycerol and FFA accumulation) in 3T3 L1 adipocytes; format: cell-based, murine; conditions: 4 hours
Protocol: 3T3 L1 adipocytes were treated with TSH and the non-specific β-adrenoreceptor agonist isoproterenol for 4 hours. Lipolysis was assessed by the accumulation of glycerol and FFAs in the conditioned medium.
Free fatty acids were measured using the Wako NEFA C kit (Wako Chemicals GmbH, Neuss, Germany) for quantitative determination of non-esterified (or free) fatty acids with a modified protocol. Isoproterenol (ICN), a lipolysis-inducing positive control, was diluted to a starting concentration of 2 μM in assay medium (Life Technologies low glucose DMEM, 1 mM sodium pyruvate, 2 mM L-glutamine, 20 mM HEPES, and 0.5% BSA). The isoproterenol was further diluted in half log serial dilutions. TSH was serially diluted down to 0.06 nM. The medium was removed from 3T3 L1 adipocytes in 96-well plates. 50 μl of assay medium were added to each well, followed by 50 μl of TSH or isoproterenol to each well. The plates were incubated for 4 hours at 37° C. 40 μl of conditioned medium were collected for glycerol assay analysis, and 40 μl of conditioned medium were collected for free fatty acid analysis. Oleic acid (Sigma) was dissolved in methanol and used as a reference for determining the amount of free fatty acids in the conditioned media. Wako reagents A and B were reconstituted to 4× the recommended concentration. Conditioned media samples were assayed in 96-well plates. 50 μl of Wako reagent A were added to 5 μl of oleic acid standard plus 40 μl of assay medium. 50 μl of Wako reagent A were added to 40 μl of conditioned medium from differentiated 3T3 L1 cells and 5 μl of methanol. The 96-well plates were incubated at 37° C. for 10 minutes. 100 μl of Wako reagent B were added to each well. The 96-well plates were incubated at 37° C. for 10 minutes. The 96-well plates were then allowed to sit at room temperature for 5 minutes. The 96-well plates were centrifuged in a Beckman Coulter Allegra 6R centrifuge at 3250×g for 5 minutes to remove air bubbles. The absorbance at 530 nm was measured on the Wallac Victor2 Multilabel counter.
Glycerol was measured in conditioned media using the Sigma Triglyceride (GPO-Trinder) kit with a modified protocol. Isoproterenol was diluted to a starting concentration of 2 μM. The isoproterenol was further diluted in half log serial dilutions. TSH was diluted to starting concentrations of 300 nM in assay medium. TSH was then serially diluted down to 0.06 nM. Medium was removed from 3T3 L1 adipocytes in 96-well plates. 50 μl of assay medium were added to each well, followed by 50 μml of TSH or isoproterenol to each well. The plates were incubated for 4 hours at 37° C. […] The absorbance at 530 nm was measured on the Wallac Victor2 Multilabel counter.

For “TSH: ~30 kDa glycoprotein of two non-covalently linked alpha and beta subunits; Thyrogen, Genzyme Corporation”, which “percentage increase in body weight from the beginning of the study” value (male ob/ob mice; 28 days) is on record?
The value was 4.6+/−2.4%.

And the “members of the group with an overall decrease in weight” value (male ob/ob mice; one month)?
The value was 3 of the 8.

What about the “concentration at which lipolysis is significantly stimulated” value (3T3 L1 adipocytes; 3T3-L1 adipocytes) of the same substance?
The value was 1 nM.

What about the “concentration producing near maximal levels of extracellular glycerol and FFA” value (3T3 L1 adipocytes; 3T3-L1 adipocytes) of the same substance?
The value was 10 nM.

What about the “maximal lipolysis relative to that produced by isoproterenol” value (3T3 L1 adipocytes; 3T3-L1 adipocytes) of the same substance?
Its value is “approximately 50%”.

What about the “stimulation of lipolysis” value (3T3 L1 adipocytes; 3T3 L1 adipocytes, glycerol and FFA) of the same substance?
The value was “potently stimulated lipolysis”.
